Test results taken from ChEMBL document CHEMBL4396895, “Identification and Optimization of Novel Cathepsin C Inhibitors Derived from EGFR Inhibitors” (J Med Chem, 2019).

Amino acid sequences for entries named in this document (tags omitted). Residues count along the entry.
UniProt P53634, 395-463 limits assumed: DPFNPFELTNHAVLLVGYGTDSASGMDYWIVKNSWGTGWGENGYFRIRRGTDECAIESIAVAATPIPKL
UniProt P53634, 25-134 limits assumed: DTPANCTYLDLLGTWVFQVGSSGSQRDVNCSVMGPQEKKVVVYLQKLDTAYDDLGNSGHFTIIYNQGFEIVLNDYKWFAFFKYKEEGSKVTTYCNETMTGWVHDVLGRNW
UniProt P53634, 231-394 limits assumed: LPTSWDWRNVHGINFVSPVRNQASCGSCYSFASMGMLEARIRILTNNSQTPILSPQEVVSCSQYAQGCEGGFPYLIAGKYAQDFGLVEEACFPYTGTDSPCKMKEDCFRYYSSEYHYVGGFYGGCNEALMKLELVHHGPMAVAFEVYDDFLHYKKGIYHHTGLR

Target: Dipeptidyl peptidase 1 (Homo sapiens, UniProt P53634)
Test: Inhibition of cathepsin C (unknown origin)
Summary of the method: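 Human recombinant CatC, activated then diluted to 4.4 nM in 25 mM MES, 50 mM NaCl, 5 mM DTT, 0.01% Triton X-100, pH 6.0. Enzyme preincubated with compound 3 h at RT. Gly-Phe-AFC added (100 μM final) and product fluorescence read after 60 min. IC50 from sigmoidal nonlinear regression, mean of at least two experiments.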

Work on `N#Cc1ccc(-c2ccc(C[C@@H](C#N)NC(=O)C3(N)CCOCC3)cc2)cc1` yielded an IC50 of 2.9 nM.
